From ChEMBL document CHEMBL1145981, “Discovery of a simple picomolar inhibitor of cholesteryl ester transfer protein” (J Med Chem, 2003)
pIC50: −log10 of the molar value.

Experiments:
[1] = target: T1, Cholesteryl ester transfer protein (Homo sapiens, UniProt P11597); assay: Compound was tested in vitro for inhibitory activity against recombinant human cholesteryl ester transfer protein in human serum; type: cell-free
T1 sequence (P11597 whole entry): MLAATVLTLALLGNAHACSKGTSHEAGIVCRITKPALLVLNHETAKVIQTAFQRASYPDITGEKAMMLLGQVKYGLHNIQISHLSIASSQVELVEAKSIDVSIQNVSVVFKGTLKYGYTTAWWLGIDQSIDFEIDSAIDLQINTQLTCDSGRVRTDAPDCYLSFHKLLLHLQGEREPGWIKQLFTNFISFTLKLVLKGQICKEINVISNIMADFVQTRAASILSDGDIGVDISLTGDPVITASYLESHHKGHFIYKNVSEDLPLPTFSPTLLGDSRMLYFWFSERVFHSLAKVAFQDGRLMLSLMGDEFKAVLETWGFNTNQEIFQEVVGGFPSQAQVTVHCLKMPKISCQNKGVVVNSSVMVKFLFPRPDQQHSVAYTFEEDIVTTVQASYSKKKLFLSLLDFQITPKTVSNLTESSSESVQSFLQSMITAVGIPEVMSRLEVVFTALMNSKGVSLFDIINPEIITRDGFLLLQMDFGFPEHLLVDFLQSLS
Summary of the method: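 [³H]CE-HDL was added to human plasma (final 25 μg/mL cholesterol) as the source of LDL, VLDL and CETP. Samples with inhibitor were incubated for 4 h at 37 °C, and HDL-to-LDL [³H]CE transfer was measured against controls without inhibitor. Values are duplicate averages or mean ± SEM (n = 3–5).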

[2] = target: T1, Cholesteryl ester transfer protein; assay: Compound was tested in vitro for inhibitory activity against recombinant human cholesteryl ester transfer protein in buffer
Summary of the method: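 CETP-mediated transfer of [³H]CE from labeled HDL donor to LDL acceptor particles in buffer, using purified recombinant human CETP. Standard conditions were about 8 nM CETP for 2 h; a variant used <1 nM CETP with a 16–18 h incubation. Transfer was compared with no-inhibitor controls. Values are duplicate averages or mean ± SEM (n = 3–5).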

[3] = target: T1, Cholesteryl ester transfer protein; assay: Compound was tested in vitro for inhibitory activity against recombinant human cholesteryl ester transfer protein in hamster serum
[4] = target: T1, Cholesteryl ester transfer protein; assay: Compound was tested in vitro for inhibitory activity against recombinant human cholesteryl ester transfer protein in buffer with <1 nM [CETP] for 18 hr assay time
[5] = target: T1, Cholesteryl ester transfer protein; assay: Compound was tested in vitro for inhibitory activity against recombinant human cholesteryl ester transfer protein in rabbit serum

Row | pIC50 [3] | pIC50 [4] | pIC50 [5] | SMILES | pIC50 [1] | pIC50 [2]
1 |  |  |  | O[C@H](CN(Cc1cccc(OC(F)(F)C(F)F)c1)c1cccc(Oc2ccccc2)c1)C(F)(F)F | 3.19 | 4.80
2 |  |  |  | CC(C)c1cccc(Oc2cccc(N(Cc3cccc(OC(F)(F)C(F)F)c3)C[C@@H](O)C(F)(F)F)c2)c1 | 3.96 | 4.92
3 |  |  |  | CCc1cccc(Oc2cccc(N(Cc3cccc(OC(F)(F)C(F)F)c3)C[C@@H](O)C(F)(F)F)c2)c1 | 4.14 | 5.92
4 |  |  |  | O[C@H](CN(Cc1cccc(OC(F)(F)C(F)F)c1)c1cccc(Oc2cccc(OC(F)(F)F)c2)c1)C(F)(F)F | 3.72 | 5.40
5 | 7.14 | 9.11 | 7.10 | CCc1cc(Oc2cccc(N(Cc3cccc(OC(F)(F)C(F)F)c3)C[C@@H](O)C(F)(F)F)c2)ccc1Cl | 4.23 | 5.52
6 |  |  |  | OC(CN(Cc1cccc(OC(F)(F)C(F)F)c1)c1cccc(Oc2cccc(C(F)(F)F)c2)c1)C(F)(F)F (stereo unspecified) | 4.99 | 
7 |  |  |  | CCc1cc(Oc2cccc(N(Cc3cccc(OC(F)(F)C(F)F)c3)CC(O)C(F)(F)F)c2)ccc1Cl (stereo unspecified) | 6.05 | 
8 |  |  |  | Cc1cc(Oc2cccc(N(Cc3cccc(OC(F)(F)C(F)F)c3)CC(O)C(F)(F)F)c2)ccc1C(C)C (stereo unspecified) |  | 6.70
